# Legend:
# By UniProt entry, the sequences of proteins in these tests, tags left out.
# UniProt O00444, whole entry: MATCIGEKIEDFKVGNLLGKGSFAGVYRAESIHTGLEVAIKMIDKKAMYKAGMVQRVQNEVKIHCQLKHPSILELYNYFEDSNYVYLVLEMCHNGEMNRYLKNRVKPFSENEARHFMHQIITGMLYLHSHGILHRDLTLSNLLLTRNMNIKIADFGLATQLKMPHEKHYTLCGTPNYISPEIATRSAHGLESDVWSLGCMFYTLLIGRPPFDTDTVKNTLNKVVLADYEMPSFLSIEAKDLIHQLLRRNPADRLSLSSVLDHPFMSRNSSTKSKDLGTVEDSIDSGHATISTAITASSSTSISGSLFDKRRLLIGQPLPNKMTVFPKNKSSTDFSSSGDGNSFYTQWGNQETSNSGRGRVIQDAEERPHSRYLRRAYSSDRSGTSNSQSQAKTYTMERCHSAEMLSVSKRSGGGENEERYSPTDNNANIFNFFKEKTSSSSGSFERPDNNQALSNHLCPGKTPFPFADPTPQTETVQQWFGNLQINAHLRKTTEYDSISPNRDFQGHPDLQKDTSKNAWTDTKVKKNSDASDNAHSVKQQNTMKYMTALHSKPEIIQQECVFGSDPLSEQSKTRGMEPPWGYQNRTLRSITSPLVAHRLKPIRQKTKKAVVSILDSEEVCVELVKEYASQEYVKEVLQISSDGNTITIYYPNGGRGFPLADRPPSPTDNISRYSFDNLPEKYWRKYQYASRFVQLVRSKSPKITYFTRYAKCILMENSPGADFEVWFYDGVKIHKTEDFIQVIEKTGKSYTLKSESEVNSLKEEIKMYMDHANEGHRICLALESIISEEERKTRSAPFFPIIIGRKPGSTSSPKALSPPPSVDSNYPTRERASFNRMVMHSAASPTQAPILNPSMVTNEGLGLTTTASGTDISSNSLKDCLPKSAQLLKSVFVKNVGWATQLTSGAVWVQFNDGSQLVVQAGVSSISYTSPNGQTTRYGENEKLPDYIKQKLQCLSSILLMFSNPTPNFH
# UniProt O14965, whole entry: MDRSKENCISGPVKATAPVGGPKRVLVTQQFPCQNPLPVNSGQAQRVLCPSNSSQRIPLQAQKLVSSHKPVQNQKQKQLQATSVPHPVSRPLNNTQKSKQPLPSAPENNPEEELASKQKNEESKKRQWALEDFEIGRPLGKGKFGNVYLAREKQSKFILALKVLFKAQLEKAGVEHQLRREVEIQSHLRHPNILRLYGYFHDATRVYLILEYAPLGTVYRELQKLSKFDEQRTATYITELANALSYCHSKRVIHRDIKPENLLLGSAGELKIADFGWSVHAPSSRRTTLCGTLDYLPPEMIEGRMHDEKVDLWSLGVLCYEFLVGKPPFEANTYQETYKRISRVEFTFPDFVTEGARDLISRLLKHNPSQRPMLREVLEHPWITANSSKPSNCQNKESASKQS
# UniProt Q96GD4, whole entry: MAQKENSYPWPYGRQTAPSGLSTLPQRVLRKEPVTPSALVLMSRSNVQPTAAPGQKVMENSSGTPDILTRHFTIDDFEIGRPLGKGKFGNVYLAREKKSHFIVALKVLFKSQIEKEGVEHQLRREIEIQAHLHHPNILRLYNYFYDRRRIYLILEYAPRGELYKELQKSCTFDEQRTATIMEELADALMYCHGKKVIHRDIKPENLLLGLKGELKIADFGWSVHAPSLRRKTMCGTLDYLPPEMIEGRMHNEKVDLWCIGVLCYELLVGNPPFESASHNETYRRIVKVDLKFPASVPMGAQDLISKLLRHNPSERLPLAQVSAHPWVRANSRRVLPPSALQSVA
# human recombinant PLK4 = human recombinant PLK4 (Homo sapiens, UniProt O00444); experiment: PLK4 Biochemical Assay (ADP-Glo); settings: read-out: PLK4 IC50; 0.5 nM PLK4, 8.0 μM ATP, 4.7 μM MBP, 6 hours at RT
# CHP134 = CHP134 CellTiter-Glo (CTG) Assay; settings: read-out: CTG IC50; viable cells by CellTiter-Glo after 5 days
# [1] = target: human recombinant Aurora A (Homo sapiens, UniProt O14965); experiment: Aurora A Kinase Biochemical Assay (ADP-Glo); settings: selectivity ratio; Aurora A 2.5 nM, 20 μM ATP
# [2] = target: human recombinant Aurora B (Homo sapiens, UniProt Q96GD4); experiment: Aurora B Kinase Biochemical Assay (ADP-Glo); settings: selectivity ratio; Aurora B 10 nM, 114 μM ATP
smiles,measurement,setting,value
[2H]C([2H])([2H])Oc1ccc2c(c1)[C@]1(C[C@H]1c1ccc3c(Nc4nc(C)ncc4OCC)n[nH]c3c1)C(=O)N2,IC50,human recombinant PLK4,1.89 nM
same,IC50,CHP134,411 nM
same,[Aurora A IC50 (nM)]/[PLK4 IC50 (nM)],[1],4818.3738
same,[Aurora B IC50 (nM)]/[PLK4 IC50 (nM)],[2],341.1826

# — patent publication US20260108527A1, “POLO LIKE KINASE 4 INHIBITORS” (ORIC Pharmaceuticals, Inc., priority 2022, published 2026)
